Target: human FLAP (Homo sapiens (Human), UniProt P20292)
Experiment: FLAP binding assay (HTRF)
Conditions: wild type FLAP-containing membranes, HTRF format

Protein sequences, listed by entry. Tags and fused reporters are not part of them. Lines headed by an entry give the natural chain unless they say otherwise; changes in a name come on top.
UniProt P20292: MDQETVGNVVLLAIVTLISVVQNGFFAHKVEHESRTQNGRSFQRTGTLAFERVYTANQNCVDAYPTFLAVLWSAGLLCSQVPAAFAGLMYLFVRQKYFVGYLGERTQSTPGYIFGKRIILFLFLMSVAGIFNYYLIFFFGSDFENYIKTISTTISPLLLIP

SMILES | Ki [nM]
Cc1ccc(COc2cc(F)c3nc([C@@H]4[C@H](C(=O)O)C4(C)C)n(Cc4ccc(Br)cc4)c3c2)nc1 (racemic) [Example 63, racemic cis-3-{1-(4-Bromobenzyl)-4-fluoro-6-[(5-methylpyridin-2-yl)methoxy]-1H-benzimidazol-2-yl}-2,2-dimethylcyclopropanecarboxylic acid] | 23
Cn1ccc(COc2ccc3nc([C@@H]4CCCC[C@@H]4C(=O)O)n(Cc4ccc(OC(F)(F)F)cc4)c3c2)n1 (relative stereo) [Example 45, (1R*,2S*)-2-{6-[(1-Methyl-1H-pyrazol-3-yl)methoxy]-1-[4-(trifluoromethoxy)benzyl]-1H-benzimidazol-2-yl}cyclohexanecarboxylic acid] | ~2500
Cc1ccc(COc2ccc3nc([C@H]4[C@@H](C(=O)O)C4(C)C)n(Cc4ccc(Br)cc4)c3c2)nc1 (relative stereo) [Example 113, (1R*,3S*)-3-{1-(4-Bromobenzyl)-6-[(5-methylpyridin-2-yl)methoxy]-1H-benzimidazol-2-yl}-2,2-dimethylcyclopropanecarboxylic acid] | ~1790

From patent publication US9089569B2, “1,2,6-substituted benzimidazoles as flap modulators” (JANSSEN PHARMACEUTICA NV, priority 2013, dated 2015)
